Assays:
BCRP [1] = target: T1, BCRP (Homo sapiens, UniProt Q9UNQ0); experiment: cell-based
BCRP [2] = target: T1, BCRP; settings: estimated liver concentration divided by BCRP IC50 in MCF7/MX100 cells

Chains of the proteins cited; added tags and fusions are not shown. Lines headed by an entry give the natural chain unless they say otherwise; changes in a name come on top.
UniProt Q9UNQ0: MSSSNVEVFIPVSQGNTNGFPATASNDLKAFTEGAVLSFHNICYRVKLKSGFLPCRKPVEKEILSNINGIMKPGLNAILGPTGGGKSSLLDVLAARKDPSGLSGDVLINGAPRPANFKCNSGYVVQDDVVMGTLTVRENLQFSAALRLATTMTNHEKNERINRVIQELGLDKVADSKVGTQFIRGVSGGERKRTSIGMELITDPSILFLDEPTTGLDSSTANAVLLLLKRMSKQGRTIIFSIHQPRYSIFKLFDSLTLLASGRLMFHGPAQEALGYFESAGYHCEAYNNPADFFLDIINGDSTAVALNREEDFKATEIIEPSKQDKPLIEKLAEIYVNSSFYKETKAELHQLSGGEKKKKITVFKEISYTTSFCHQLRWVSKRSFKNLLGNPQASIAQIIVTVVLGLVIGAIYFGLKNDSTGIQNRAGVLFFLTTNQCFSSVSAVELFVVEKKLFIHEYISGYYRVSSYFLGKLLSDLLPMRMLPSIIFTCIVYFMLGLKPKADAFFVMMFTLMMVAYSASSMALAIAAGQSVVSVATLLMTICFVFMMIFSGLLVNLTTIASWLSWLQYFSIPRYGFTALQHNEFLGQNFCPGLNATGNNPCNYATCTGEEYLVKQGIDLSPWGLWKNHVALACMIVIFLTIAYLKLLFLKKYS

## Cc1cc2c(s1)Nc1ccccc1N=C2N1CCN(C)CC1 [Olanzapine]
BCRP [1]
  IC50: > 100 µM
BCRP [2]
  Cmax * liver:plasma partition ratio/IC50: <0.09

## Cc1nc2n(c(=O)c1CCN1CCC(c3noc4cc(F)ccc34)CC1)CCCC2 [Risperidone]
BCRP [1]
  IC50: 38.1 µM
BCRP [2]
  Cmax * liver:plasma partition ratio/IC50: 0.2

Source: publication PMC2637613 (Basic & clinical pharmacology & toxicology, 2008)
